Patent US20090069324A1, “CHEMICAL INHIBITORS OF BFL-1 AND RELATED METHODS” (The Burnham Institute, priority 2007, published 2009)

Amino acid sequences for entries named in this document (tags omitted). Residues count along the entry.
UniProt Q16548, 1-155 limits assumed: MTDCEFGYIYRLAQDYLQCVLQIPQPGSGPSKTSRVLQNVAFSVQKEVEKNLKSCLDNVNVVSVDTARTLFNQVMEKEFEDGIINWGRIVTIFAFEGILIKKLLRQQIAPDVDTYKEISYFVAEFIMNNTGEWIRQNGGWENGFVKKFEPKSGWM

Key:
[1] = target: T1, Bfl-1 (Homo sapiens, UniProt Q16548); assay: Bfl-1 fluorescence polarization assay (FPA/FP), competition with FITC-Bid BH3 peptide; format: binding; details: read-out: Bfl-1 FPA IC50; Tables 7-8; Avg where the cell lists several determinations
[2] = target: T1, Bfl-1; assay: Bfl-1 TR-FRET assay (FITC-Bid, Tb-anti-GST antibody); format: binding; details: read-out: Bfl-1 TR-FRET IC50; Tables 7-8; Avg where the cell lists several determinations

| Structure (SMILES) | IC50 [1] [µM] | IC50 [2] [µM] |
| --- | --- | --- |
| O=C1C(Cl)=C(N2CCOCC2)C(=O)N1c1cccc(Cl)c1 | 8.5 | 6.4 |
| O=C1C(Cl)=C(N2CCOCC2)C(=O)N1c1ccccc1Cl | > 10 | 5.8 |
